{"source": "patent US20210379099A1", "about": "(priority 2020, published 2021)", "origin": "cited, not measured here", "conditions": "cited from earlier work", "data": [{"substance": "cucurbit[8]uril", "values": [{"measurement": "water solubility", "result": "< 10", "unit": "µM"}]}]}
